Data published in patent US20040209315A1, “Methods to identify agents that increase or decrease UBP43 activity and methods for use of such agents” (priority 2003, published 2004).

Legend:
Assay type in all cases: cell-based, mice
[1] = test system: UBP43+/+ and UBP43−/− bone marrow cells; assay: In vitro bone marrow cell colony forming unit (CFU) assay
Text: (a) Hematopoietic cells transplanted from UBP43−/− mice to UBP43+/+ congenic strain mice are hypersensitive to poly(I—C) injection. Bone marrow cells (CD45.2+) from individual UBP43+/+ and UBP43−/− mice (n=4 for each group) were isolated and transplanted to lethally irradiated congenic strain mice (CD45.2−). Six months after the transplantation, flow cytometric analysis was done to determine the relative amount of peripheral blood cells contributed from the donor or recipient mice based on CD45-2 immunostaining before and after poly(I—C) injection (48 h). Flow cytometric analysis results from one representative mouse transplanted with UBP43+/+ or UBP43−/− bone marrow are presented. (b) UBP43−/− bone marrow cells are hypersensitive to IFNβ treatment. Bone marrow cells from UBP43+/+ and UBP43−/− mice were cultured at 2×10^4 cells/ml in CFU assay medium in the presence of various concentrations of IFNβ. Total colony number was counted after 12 days of culture. Results of a single representative experiment of two independent experiments are shown. Data points represent mean (±SD) colony growth derived from colony counts in three replicate plates for each mouse with two mice in each group. (c) Increased level of ISG15 conjugation in UBP43−/− bone marrow cells. Bone marrow cells were either left untreated or stimulated with 100 unit/ml IFNβ for 24 hours. Total proteins (15 μg) were resolved on 6-18% gradient SDS-PAGE and immunoblotted with anti-mouse ISG15 antibodies (Abs).
(§1) In vitro bone marrow cell culture. The colony forming unit (CFU) assay was performed as described previously in the presence of the indicated concentration of IFNβ (Calbiochem) (Rhoades, Hetherington, Harakawa, Yergeau, Zhou, Liu, Little, Tenen, and Zhang, 2000). Liquid culture of bone marrow cells was performed in RPMI 1640 with 10% fetal bovine serum, 10 ng/ml IL-3 (peprotech), 10 ng/ml IL-6 (Peprotech), and 100 ng/ml SCF (Peprotech) in the presence or absence of 100 unit/ml IFNβ, 10 ng/ml IFNγ. (Peprotech), or 10 ng/ml TNFα (Calbiochem).
Besides activating type I IFN production, poly(I—C) also activates other signaling pathways related to viral infection (Kaufinan, Proc. Natl. Acad. Sci., 96: 11693 (1999)). […] The CFU assay is commonly used to study defects of bone marrow cells in response to various cytokines and growth factors. Type I IFN is known to suppress bone marrow cell proliferation and colony formation (Broxmeyer et al., J. Immunol., 131: 1300 (1983)). […] Such a difference in colony formation indicated an abnormal sensitivity of UBP43 deficient cells to IFNβ. […] Furthermore, consistent with UBP43 enzymatic specificity, a higher level of protein ISGylation is detected in UBP43−/− bone marrow cells relative to UBP43+/+ bone marrow cells (FIG. 2c).

[2] = test system: UBP43± and UBP43−/− bone marrow cells; assay: Liquid bone marrow cell culture, Trypan blue dye exclusion assay; details: 100 units/ml IFNβ, 48 hours
Experimental: (§2) (a) Bone marrow cells isolated from UBP43+/+ and UBP43−/− mice were cultured in vitro in the presence or the absence of INFβ (100 units/ml) for 48 hours. TUNEL assay was performed to study the percentage of apoptosis cells. (b) 48 hours after UBP43−/− bone marrow cells were infected with UBP43-MigR1, they were cultured in the presence or the absence of IFNβ (100 units/ml) for 48 hours. The cells (15% EGFR+ and 85% EGFR−) were stained with Annexing V-PE and 7-AAD and analyzed by flow cytometry. (c) Bone marrow cells from UBP43± and UBP43−/− mice were cultured in the absence or presence of 10 ng/ml IFγ, 10 ng/ml TNFα, and 100 units/ml IFNβ for 48 hours. Cells were then subjected to Trypan blue dye exclusion assay. Each data point represents the mean of three independent experiments. Error bar represents standard deviation about the mean.
as §1, with “(Calbiochem). […]” for “(Calbiochem).”

[3] = test system: ISGF3 complex in UBP43+/+ and UBP43−/− bone marrow cells; assay: Gel shift assay of ISGF3 DNA binding
Experimental: (a) ISFG3-complex formation in UBP43 deficient cells upon IFNβ stimulation. UBP43+/+ and UBP43−/− bone marrow cells were either left untreated or stimulated for the time indicated. Total protein extracts (30 μg) were used in the gel shift assays with ^32P-labeled double stranded oligonucleotide that contains an ISGF3 binding site. (b) UBP43+/+ and UBP43−/− bone marrow cells were either left untreated or stimulated with 100 unit/ml IFNβ as described above. Total proteins (15 μg) were resolved on 7% SDS-PAGE and immunoblotted with anti-phospho-Stat1 (Tyr701) Abs. Blots were stripped and reprobed with anti-Stat1 Abs to assure equal loading. (c) Induction of ISGs in UBP43+/+ and UBP43−/− bone marrow cells. Northern blot analysis of ISG15, 2′-5′OAS and IRF7 gene expression was performed on total RNA isolated from UBP43+/+ and UBP43−/− bone marrow cells treated with 100 unit/ml of IFNβ for the time indicated.
Gel shift assay. Assays were performed as previously described (Malakhova et al., J. Biol. Chem., 277: 14703 (2002). Double stranded oligonucleotide from the ISG15 promoter that contains an ISGF3 binding site was used in the assay (Fu et al., Proc. Natl. Acad. Sci., 87: 8555 (1990).
JAK-STAT signaling is extensively activated in UBP43-null cells upon IFN stimulation. The molecular basis for the action of IFN has not been understood despite tremendous past efforts. […]

[4] = test system: UBP43+/+ and UBP43−/− bone marrow cells; assay: TUNEL apoptosis assay on liquid bone marrow culture; details: 100 units/ml IFNβ, 48 hours
Experimental: as §2
In vitro bone marrow cell culture. The colony forming unit (CFU) assay was performed as described previously in the presence of the indicated concentration of IFNβ (Calbiochem) (Rhoades, Hetherington, Harakawa, Yergeau, Zhou, Liu, Little, Tenen, and Zhang, 2000). […]
Apoptosis assay. […] A total of 200 cells were counted to determine the percentage of apoptotic cells. […]

Substance: IFNβ: type I interferon (Calbiochem)
- reduction in colony formation ([1]; UBP43+/+ bone marrow cells, 1000 units/ml IFNβ): 40%
- reduction in colony number ([1]; UBP43+/+ cells, similar CFU assays (50 units/ml IFNβ)): < 10%
- reduction of bone marrow colony numbers ([1]; UBP43−/− bone marrow cells, 50 units/ml IFNβ): > 80%
- colony formation ([1]; UBP43−/− bone marrow cells, 1000 units/ml IFNβ): formed no colonies at all
- apoptosis in UBP43−/− cells [2]: substantial increase
- time of stimulation by which ISGF3 DNA binding became undetectable ([3]; UBP43+/+ cells, IFNβ stimulation): ≤ 12 h
- ISGF3 DNA binding at 48 hours ([3]; UBP43−/− cells, IFNβ treated): still detectable
- percentage of apoptotic cells (TUNEL) ([4]; UBP43+/+ bone marrow cell culture): remained constant
- number of apoptotic cells (TUNEL) ([4]; UBP43−/− bone marrow cells): significant increase
